From PubChem BioAssay (NCI)
The list shows a part of the results, in another mix than the full data. Active and inactive are the calls of the source. Rule as the data show it: active = growth inhibition above about 70%; inactive = the rest.

test: NCI Yeast Anticancer Drug Screen. Data for the mlh1 rad18 strain (AID 175); details: S. cerevisiae mlh1 rad18 strain growth inhibition; at 50.0 µM; hits give high values

SMILES	growth inhibition
[N-]=[N+]=NCC(O)CN=[N+]=[N-] (centres undefined)	inactive: -0.3%
CCN(CC)CCNc1cc(OC)cc2nccnc12	inactive: 1.55%
O=C(CC[N+](=O)[O-])OCC1OC(OC(=O)CC[N+](=O)[O-])C(OC(=O)CC[N+](=O)[O-])C(O)C1O (centres undefined)	inactive: -1.5%
O=[N+]([O-])N=C1NCCN1	inactive: 12.8%
